According to ChEMBL document CHEMBL1140025, “Antimicrobial activity of rationally designed amino terminal modified peptides” (Bioorg Med Chem Lett, 2007):

Tested on: Escherichia coli

GENTAMICIN showed an MIC of 0.5 µg/mL.
